Compound activity from PubChem.
Most compounds without a hit are left out; they make up all but 4.2% or so of the library.
Yeast UUG start = modulators of yeast start codon fidelity, primary screen, whole organism, S. cerevisiae, single point, plate reader | AID 602363, 2012 | actives 0.13% (n = 350,000) | activity score, % at 18.7 µM | S. cerevisiae UUG-firefly luciferase reporter, luminescence/redox ratio;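 active means replicate mean at a twofold rise or more, about +100% in these data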;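 further: firefly luciferase made from a UUG start codon reports start codon fidelity; reporter light over untreated wells divided by growth signal over untreated wells; some hits fall short of that in this replicate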
HDAC3 inhib = HDAC3 deacetylase inhibitors, primary screen, biochemical, fluorescence, cell-free homogeneous; recombinant HDAC3, fluorogenic peptide/trypsin coupled; AID 2718, 2010; hit rate 0.15% among 320,000; inhibition, % at 8.3 µM; in the data active = inhibition above about 26%, passing the limit was not always enough; inconclusive = no clear call, values can overlap the other calls
MC4R antagonist = MC4R antagonists of cAMP signaling, primary screen, cell-based, TR-FRET, antagonist arm of biased-ligand search | inhibition, % at 6.5 µM | MC4R-expressing cells, MTII-stimulated cAMP, LANCE TR-FRET | Melanocortin receptor 4 (Homo sapiens), P32245 | hit rate 0.48% among 360,000 | AID 540295, 2011;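 active = inhibition above its plate's cutoff, the mean of tested wells on that plate plus 3 SD, cut at about 29% in these data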;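 also: 0% = Melanotan II alone and 100% = Melanotan II plus saturating MCL0020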
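Assay system: U2OS cells stably expressing human melanocortin 4 receptor (MC4R) / Dosing: 6.5 µM / Timing: compound 30 min, challenge 1 h, detection 1 h / Measured by: Eu-cAMP/anti-cAMP TR-FRET, emission 671 nm / Replicates: singlicate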
ALR H2O2 inh = inhibitors of human ALR sulfhydryl oxidase, primary screen, biochemical, H2O2 detection, HRP-luminol luminescence, single point. purified ALR, DTT oxidation. inhibition, % (concentration not given with the values). 290,000 compounds, 3.8% hits. AID 485317, 2010;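 active = mean and each replicate at 75% or more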;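 note: stock transfer was 7.5 nL into about 7.5 µL; 0% = neutral wells and 100% = wells with inactivated enzyme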
NALP1 yeast inh = NALP1 inflammasome inhibitors in reconstituted yeast, colorimetric, S. cerevisiae, triplicate retest; S. cerevisiae NALP1/ASC/caspase-1 growth, X-gal OD620, 72 h; inhibition, % at 10 µM; hit rate 0.61% among 280,000; in the data active = inhibition mostly above about 24%, no sharp cut-off; inactive = mostly below about 32%
MC4R barr agon = MC4R agonists recruiting beta-arrestin, primary screen, cell-based, luminescence, agonist arm of biased-ligand search; Melanocortin receptor 4 (Homo sapiens), P32245; U2OS MC4R beta-arrestin complementation; percent of melanotan II response, DMSO zero; activation, % at 8.9 µM; hit rate 0.98% among 360,000; AID 540308, 2011;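 active = activation above a per-plate cutoff, the mean activation of sample wells on that plate plus 3 SD, cut at about 8% in these data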
* = called active by the depositor; ? = inconclusive; · = not tested or not shown.

By UniProt entry, the sequences of proteins in these tests, tags left out.
Melanocortin receptor 4 (Homo sapiens), P32245, UniProt P32245, whole entry, looked up: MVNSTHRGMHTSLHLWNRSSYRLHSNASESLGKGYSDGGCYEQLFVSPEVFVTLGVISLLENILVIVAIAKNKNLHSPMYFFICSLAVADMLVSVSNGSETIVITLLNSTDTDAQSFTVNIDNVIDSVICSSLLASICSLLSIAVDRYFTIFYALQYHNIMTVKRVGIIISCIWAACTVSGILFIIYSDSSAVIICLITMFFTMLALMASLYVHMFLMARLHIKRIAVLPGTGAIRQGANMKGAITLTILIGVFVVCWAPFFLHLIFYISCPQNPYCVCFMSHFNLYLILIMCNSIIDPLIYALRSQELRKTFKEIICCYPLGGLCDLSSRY

Assay codes – A = Yeast UUG start; B = HDAC3 inhib; C = MC4R antagonist; D = ALR H2O2 inh; E = NALP1 yeast inh; F = MC4R barr agon
1. O=C1[C@@H]2C(c3ccc(F)cc3)=NO[C@@H]2C(=O)N1Cc1ccccc1
  A = 11	B = -4	C = 4	D = 0	E = 15	F = 0

2. Nc1ccc(S(N)(=O)=O)cc1N
  A = 1	B = 2	C = -2	D = 84*	E = ·	F = -1

3. Cc1ccc(C)c(OCc2cc(C(=O)NC3CCN(Cc4ccccc4)CC3)no2)c1
  A = ·	B = 3	C = 4	D = -24	E = 19	F = 3

4. O=C(NC1CCN(Cc2ccccc2)C1)c1cc(COc2ccc(F)cc2F)on1 (stereo not given)
  A = ·	B = 7	C = 11	D = -7	E = 28*	F = -2

5. CC(C)=CCC/C(C)=C/Cc1c(O)ccc(C(=O)/C=C/c2ccc(O)cc2)c1O
  A = -8	B = 8	C = 7	D = ·	E = 19	F = 8.6*

6. C=C(C)C(O)Cc1c(OC)ccc(C(=O)/C=C/c2ccc(O)cc2)c1O (stereo not given)
  A = -10	B = ·	C = 3	D = ·	E = ·	F = 3

7. COc1cc(NC(=S)NCc2cccnc2)cc(OC)c1
  A = ·	B = -1	C = 6	D = -6	E = 13	F = -1

8. COc1cccc(NC(=O)C2C3C=CC(O3)C2C(=O)NCc2cccnc2)c1 (stereo not given)
  A = -23	B = -7	C = 2	D = 98*	E = 9	F = 1

9. CCOC(=O)c1c(NC(=O)Cn2nc(C(=O)O)c3ccccc3c2=O)sc(CC)c1C
  A = -10	B = 1	C = 11	D = 12	E = 12	F = 8

10. CCOC(=O)c1c(NC(=O)Cn2nc(C(=O)O)c3ccccc3c2=O)sc(C)c1C
  A = -10	B = -3	C = -2	D = -3	E = 0	F = 9.0*

11. COc1cc2c(CCNC(C)=O)c[nH]c2cc1O
  A = -3	B = -13	C = 6	D = 80*	E = ·	F = -1

12. COc1ccc(CCNC(=O)NCCc2c[nH]c3ccccc23)cc1OC
  A = -12	B = 8	C = 3	D = 0	E = 11	F = -1

13. CC(=O)N(C1=C(Cl)C(=O)c2ccccc2C1=O)C1CCCCC1
  A = -46	B = ?	C = 10	D = 22	E = 66*	F = -2

14. CC(=O)N(c1ccccc1C)C1CCCC1
  A = -7	B = 3	C = 1	D = -5	E = 8	F = -2

15. Cc1ccc(S(=O)(=O)c2nc(NN(C)C)sc2Cl)cc1
  A = ·	B = 0	C = -1	D = 97*	E = 7	F = 2

16. Cc1ccc(S(=O)(=O)c2nc(Nc3ccccc3C#N)sc2Cl)cc1
  A = ·	B = -1	C = 25	D = -4	E = 21	F = 5

17. CCOc1ccc(N(CC(=O)NN=C2CCN(C)CC2)S(C)(=O)=O)cc1
  A = ·	B = -4	C = 1	D = 91*	E = 12	F = 0

18. S=c1[nH]nc(CNc2ccc(Cl)cc2)n1Cc1ccccc1
  A = ·	B = -5	C = 7	D = 99*	E = -14	F = -2

19. Cc1ccn(Cc2n[nH]c(=S)n2Cc2ccccc2)n1
  A = ·	B = 4	C = -2	D = 91*	E = -7	F = -2

20. Cc1ccc(S(=O)(=O)Nc2ccc3c(c2)C(=O)N([C@H](C)CO)C[C@H](C)[C@H](CN(C)C(=O)Nc2cccc4ccccc24)O3)cc1
  A = -7	B = ·	C = ·	D = ·	E = ·	F = ·

21. C[C@H](O)C#Cc1ccc2c(c1)O[C@@H](CN(C)C(=O)CN(C)C)[C@H](C)CN([C@H](C)CO)S2(=O)=O
  A = 27	B = ·	C = ·	D = ·	E = ·	F = ·

22. Cc1cc(C(=O)NC2CCCc3c2cnn3-c2ccc(C(C)(C)C)cc2)nn1C (stereo not given)
  A = -15	B = -1	C = 9	D = -6	E = 2	F = 0

23. Cc1cc(C)cc(-n2ncc3c2CCCC3NC(=O)c2cc(C)n(C)n2)c1 (stereo not given)
  A = 6	B = -4	C = 9	D = 84*	E = -4	F = -2

24. N#Cc1cccc2c1-c1ccccc1/C2=N/NC(N)=O
  A = -16	B = -2	C = -9	D = ·	E = 6	F = 0

25. N#Cc1cccc2c1-c1ccccc1/C2=N/NC(N)=S
  A = ·	B = 0	C = -47	D = ·	E = -2	F = 17*

Following part.
Assay codes – A = Yeast UUG start; B = HDAC3 inhib; C = MC4R antagonist; D = ALR H2O2 inh; E = NALP1 yeast inh; F = MC4R barr agon
26. Cc1ccc(S(=O)(=O)c2ccc([N+](=O)[O-])o2)cc1
  A = ·	B = ·	C = 88*	D = ·	E = ·	F = -3

27. Cc1ccc(NC(=O)c2ccc([N+](=O)[O-])o2)c(C)c1
  A = -11	B = 1	C = 3	D = -27	E = 6	F = -1

28. CN(C)CCSc1nc(N)c2c3c(sc2n1)CN(C)CC3
  A = 4	B = -13	C = -1	D = 99*	E = -14	F = -1

29. CC(=O)OC1CC(C)(C)N(OC(=O)c2ccc(N)cc2)C(C)(C)C1
  A = -14	B = -3	C = 0	D = 98*	E = -15	F = -1

Record cards, as listed above. Order of screens: Yeast UUG start | HDAC3 inhib | MC4R antagonist | ALR H2O2 inh | NALP1 yeast inh | MC4R barr agon
CN(C)CCSc1nc(N)c2c3c(sc2n1)CN(C)CC3 is entered as 4 | -13 | -1 | 99* | -14 | -1
Cc1ccc(NC(=O)c2ccc([N+](=O)[O-])o2)c(C)c1 is entered as -11 | 1 | 3 | -27 | 6 | -1
